Measured values: ChEMBL document CHEMBL4819022, “Discovery of JNJ-63576253: A Clinical Stage Androgen Receptor Antagonist for F877L Mutant and Wild-Type Castration-Resistant Prostate Cancer (mCRPC)” (J Med Chem, 2021)

The chains behind the UniProt entries cited, without tags or fusion partners.
UniProt P10275, whole entry F877L: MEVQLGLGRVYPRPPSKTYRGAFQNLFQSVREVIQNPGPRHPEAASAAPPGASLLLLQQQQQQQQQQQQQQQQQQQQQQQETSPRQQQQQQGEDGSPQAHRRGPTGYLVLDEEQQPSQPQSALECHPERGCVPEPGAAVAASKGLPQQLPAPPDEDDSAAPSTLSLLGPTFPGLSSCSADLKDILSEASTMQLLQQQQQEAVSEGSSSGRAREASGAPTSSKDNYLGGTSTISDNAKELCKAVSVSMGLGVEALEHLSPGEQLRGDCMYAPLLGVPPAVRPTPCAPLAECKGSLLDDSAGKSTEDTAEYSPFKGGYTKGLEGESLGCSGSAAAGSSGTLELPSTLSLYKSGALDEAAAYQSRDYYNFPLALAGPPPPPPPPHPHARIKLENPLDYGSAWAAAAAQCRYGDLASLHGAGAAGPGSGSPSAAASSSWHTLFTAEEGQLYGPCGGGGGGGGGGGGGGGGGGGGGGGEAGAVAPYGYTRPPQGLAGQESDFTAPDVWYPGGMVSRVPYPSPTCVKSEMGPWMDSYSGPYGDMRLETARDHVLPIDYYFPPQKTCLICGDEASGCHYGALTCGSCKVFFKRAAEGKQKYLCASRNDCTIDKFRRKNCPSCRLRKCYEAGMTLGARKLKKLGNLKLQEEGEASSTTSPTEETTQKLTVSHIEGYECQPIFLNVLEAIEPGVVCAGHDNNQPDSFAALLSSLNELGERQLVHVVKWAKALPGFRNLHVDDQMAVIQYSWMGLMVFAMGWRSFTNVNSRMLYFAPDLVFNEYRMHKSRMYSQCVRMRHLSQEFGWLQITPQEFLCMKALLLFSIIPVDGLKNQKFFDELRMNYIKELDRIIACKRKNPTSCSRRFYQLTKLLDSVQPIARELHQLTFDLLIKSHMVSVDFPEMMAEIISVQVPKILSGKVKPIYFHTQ

Key:
Androgen receptor [1] = target: T1, Androgen receptor (Homo sapiens, UniProt P10275); test: biochemical; format: cell-based, LNCaP
Androgen receptor [2] = target: T1, Androgen receptor; test: biochemical; format: cell-based, LNCaP; remark: listed apart in the source
[3] = system: Androgen receptor (Homo sapiens), P10275 [F877L]; test: Antagonist activity at AR F877L mutant (unknown origin) transfected in human LNCAP cells cotransfected with ARE-LUC incubated for 20 to 24 hrs in presence of AR agonist R1881 by steady-glo luciferase reporter gene assay relative to control; format: cell-based; conditions: filed as antagonist, time 20-24 hrs
[4] = system: Androgen receptor (Homo sapiens), P10275 [F877L]; conditions: HepG2, dose 300.0 nM, time 48.0 hrs

Row | Compound | IC50 (Androgen receptor [1]) [µM] | Ki (Androgen receptor [2]) [µM] | Imax [3] [%] | Emax [4] [%]
1 | CN1CCC(Oc2ccc(N3C(=S)N(c4cnc(C#N)c(C(F)(F)F)c4)C(=O)C34CCC4)cc2)CC1 | 0.019 | 0.0084 | > 90 | 10
2 | N#Cc1ncc(N2C(=O)C3(CCC3)N(c3ccc(OC4CCNCC4)cc3)C2=S)cc1C(F)(F)F |  |  | > 90 | 
